Biological target: rat NaP2b (SLC34A2) (Rattus norvegicus, UniProt Q9JJ09)
Test: NaP2b-mediated Pi transport: 33P phosphate uptake into transfected HEK293 cells
Conditions: 100 uM KH2PO4, PiT-silencing agent

Protein sequences, listed by entry. Tags and fused reporters are not part of them.
UniProt Q9JJ09, whole entry: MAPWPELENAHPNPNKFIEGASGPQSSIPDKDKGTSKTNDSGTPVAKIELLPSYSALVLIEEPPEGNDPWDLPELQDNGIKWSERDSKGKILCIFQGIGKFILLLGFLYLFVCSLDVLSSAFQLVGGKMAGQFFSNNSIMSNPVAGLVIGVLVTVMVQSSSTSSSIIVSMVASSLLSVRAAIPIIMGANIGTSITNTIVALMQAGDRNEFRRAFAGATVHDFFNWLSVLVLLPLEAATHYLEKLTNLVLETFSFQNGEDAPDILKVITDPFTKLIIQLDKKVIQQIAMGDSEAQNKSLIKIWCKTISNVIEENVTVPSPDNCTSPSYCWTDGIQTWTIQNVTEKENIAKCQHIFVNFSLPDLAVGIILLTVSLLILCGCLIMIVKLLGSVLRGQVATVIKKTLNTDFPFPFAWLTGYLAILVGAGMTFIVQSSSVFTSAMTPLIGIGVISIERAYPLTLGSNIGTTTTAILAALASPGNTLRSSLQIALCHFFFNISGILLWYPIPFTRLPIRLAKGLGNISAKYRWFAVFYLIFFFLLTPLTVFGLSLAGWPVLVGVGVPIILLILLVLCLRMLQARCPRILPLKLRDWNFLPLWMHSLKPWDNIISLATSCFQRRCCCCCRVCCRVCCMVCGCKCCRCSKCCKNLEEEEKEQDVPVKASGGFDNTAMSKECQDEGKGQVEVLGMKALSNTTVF

## O=C(O)CCSCc1cccc(C(=O)Nc2ccc(N3CCCCC3)cc2C(=O)Nc2cn(-c3cccc(C(F)(F)F)c3)cn2)c1
  pIC50 range for rat Nap2b: 5.1-6.0

Source: patent US9289430B2, “Compounds and methods for inhibiting phosphate transport” (Ardelyx, Inc., priority 2010, dated 2016)
